From US12187662B2, “FOXM1 inhibitor compositions and methods of using the same” (The Board of Trustees of the University of Illinois, priority 2018, dated 2025)

The chains behind the UniProt entries cited, without tags or fusion partners.
UniProt P03372, whole entry, species assumed: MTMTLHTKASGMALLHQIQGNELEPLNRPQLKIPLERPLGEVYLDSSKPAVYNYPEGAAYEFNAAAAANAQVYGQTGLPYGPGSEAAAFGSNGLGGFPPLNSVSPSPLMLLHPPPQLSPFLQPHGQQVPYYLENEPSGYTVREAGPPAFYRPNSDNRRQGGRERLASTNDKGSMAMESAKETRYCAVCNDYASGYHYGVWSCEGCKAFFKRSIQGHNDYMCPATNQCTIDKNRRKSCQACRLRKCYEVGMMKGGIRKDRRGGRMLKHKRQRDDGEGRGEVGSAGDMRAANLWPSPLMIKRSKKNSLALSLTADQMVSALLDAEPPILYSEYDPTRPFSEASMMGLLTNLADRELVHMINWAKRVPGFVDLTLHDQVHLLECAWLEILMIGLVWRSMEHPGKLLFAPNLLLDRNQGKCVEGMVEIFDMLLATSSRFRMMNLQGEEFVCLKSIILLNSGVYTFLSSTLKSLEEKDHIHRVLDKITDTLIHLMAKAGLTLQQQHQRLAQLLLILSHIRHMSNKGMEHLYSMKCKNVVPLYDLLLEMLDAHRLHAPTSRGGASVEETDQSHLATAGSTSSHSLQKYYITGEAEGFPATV

Columns and labels:
[1] = biological target: estrogen receptor α (ERα) (Homo sapiens, UniProt P03372); experiment: Relative binding affinity (RBA) for estrogen receptor α
[2] = Pharmacokinetic studies in mice after single s.c. or oral dose; conditions: for PK p.o. AUC0-48: 60 mg/kg p.o.
[3] = relative binding affinity, estradiol = 100

RBA ERα [1, 3]	Molecule	other results
0.12	1-(6-(4-((Z)-((5S,7S)-adamantan-2-ylidene)(4-chlorophenyl)methyl)phenoxy)hexyl)-4-methylpiperazine [NB-64]	
82	CCN(CC)CCCCCCOc1ccc(C(=C2C3CC4CC(C3)CC2C4)c2ccc(O)cc2)cc1 [NB-41, 4-((E)-((5R,7R)-adamantan-2-ylidene)(4-((6-(diethylamino)hexyl)oxy)phenyl)methyl)phenol]	
0.21	CCN(CC)CCCCCCOc1ccc(C(c2ccc(OCCCCCCN(CC)CC)cc2)=C2[C@H]3C[C@@H]4C[C@@H](C[C@H]2C4)C3)cc1 [NB-51, 6,6′-(((((5r,7r)-adamantan-2-ylidene)methylene)bis(4,1-phenylene))bis(oxy))bis(N,N-diethylhexan-1-amine)]	
0.15	CCN(CC)CCOCCOCCOc1ccc(C(=C2C3CC4CC(C3)CC2C4)c2ccc(OCCOCCOCCN(CC)CC)cc2)cc1 [NB-53, 2,2′-(((((((((5r,7r)-adamantan-2-ylidene)methylene)bis(4,1-phenylene))bis(oxy))bis(ethane-2,1-diyl))bis(oxy))bis(ethane-2,1-diyl))bis(oxy))bis(N,N-diethylethan-1-amine)]	
0.16	C[n+]1ccn(CCCCCCOc2ccc(C(=C3C4CC5CC(C4)CC3C5)c3ccc(Cl)cc3)cc2)c1 [NB-62, 1-(6-(4-((Z)-((5S,7S)-adamantan-2-ylidene)(4-chlorophenyl)methyl)phenoxy)hexyl)-3-methyl-1H-imidazol-3-ium iodide]	
0.05	c1cc(C(=C2C3CC4CC(C3)CC2C4)c2ccc(OCCCCCCN3CCCC3)cc2)ccc1OCCCCCCN1CCCC1 [NB-65, 1,1′-((((((5r,7r)-adamantan-2-ylidene)methylene)bis(4,1-phenylene))bis(oxy))bis(hexane-6,1-diyl))dipyrrolidine]	PK p.o. AUC0-48 [2]: too low to measure
0.05	CN1CCN(CCCCCCOc2ccc(C(=C3C4CC5CC(C4)CC3C5)c3ccc(OCCCCCCN4CCN(C)CC4)cc3)cc2)CC1 [NB-66, 4,4′-((((((5r,7r)-adamantan-2-ylidene)methylene)bis(4,1-phenylene))bis(oxy))bis(hexane-6,1-diyl))bis(1-methylpiperazine)]	

The remaining lines, values behind:

Molecule	RBA ERα [1, 3]	other results
6-(4-((Z)-((5S,7S)-adamantan-2-ylidene)(4-chlorophenyl)methyl)phenoxy)-N,N-diethylhexan-1-amine [NB-54]		RBA ERα [1]: 1.2 and 1.17
Clc1ccc(C(=C2C3CC4CC(C3)CC2C4)c2ccc(OCCCCCCN3CCCC3)cc2)cc1 [NB-55, 1-(6-(4-((-((Z)-((5S,7S)-Adamantan-2-ylidene)(4-chlorophenyl)methyl)phenoxy)hexyl)pyrrolidine]	0.34	
C[N+]1(CCCCCCOc2ccc(C(c3ccc(Cl)cc3)=C3C4C[C@H]5C[C@@H](C4)C[C@H]3C5)cc2)CCCC1 [NB-63]	0.15	
C[N+]1(CCCCCCOc2ccc(C(=C3C4CC5CC(C4)CC3C5)c3ccc(OCCCCCC[N+]4(C)CCCC4)cc3)cc2)CCCC1 [NB-68, 1,1′-((((((5r,7r)-adamantan-2-ylidene)methylene)bis(4,1-phenylene))bis(oxy))bis(hexane-6,1-diyl))bis(1-methylpyrrolidin-1-ium) diiodide]	0.05	
CC[N+](C)(CC)CCCCCCOc1ccc(C(c2ccc(OCCCCCC[N+](C)(CC)CC)cc2)=C2C3C[C@H]4C[C@@H](C3)C[C@H]2C4)cc1 [NB-115, 6-(4-(((5r,7r)-adamantan-2-ylidene)(4-((6-(diethyl(methyl)-λ^4-azaneyl)hexyl)oxy)phenyl)methyl)phenoxy)-N,N-diethyl-N-methylhexan-1-aminium diiodide]		PK p.o. AUC0-48 [2]: too low to measure; Blood levels after oral administration ([2]; oral, doses of FIGS. 6A-6B): very low levels; Blood levels after s.c. injection ([2]; s.c., doses of FIGS. 6A-6B): very high blood levels

Where “and” joins values, the source holds several entries; their conditions need not be identical. Equal values may be shown once. Read-outs that look alike come from different tables or passages of the source.
